This passage reports LD50 results from ChEMBL document CHEMBL3244147 (J Med Chem, 1978).

This series deals with Mus musculus. Put plainly: Toxicity in ip dosed CF1 mouse after 14 days of injection. The class given is organism-based. As to conditions: in vivo, 336 h. In outline:
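Female Carworth Farms mice, 16-20 g. Compound was suspended in 1% aqueous methylcellulose (ultrasonicated if insoluble) and diluted to doses of 4-324 mg/kg, given as 0.45 mL per mouse by a single intraperitoneal injection. Five mice per dose; survivors were counted at 14 days. LD50 is expressed in μmol/kg.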

A word on the LD50: it is the dose at which mortality reaches 50%. Read a low LD50 as greater toxicity.

In turn, `Cl.Nc1ccc(N(CCCl)CCCl)cc1` displayed an LD50 of 10.8 µmol/kg.
